Values of other authors, collected in US11575141B2 (Robert Bosch GmbH, priority 2020, dated 2023).

Pyrophosphoric acid (diphosphoric acid) [Example 3]
pKa values (pKa source in footnotes) (first pKa value listed): 0.9
pKa values (pKa source in footnotes) (fourth pKa value listed): 9.32
pKa values (pKa source in footnotes) (second pKa value listed): 2.1
pKa values (pKa source in footnotes) (third pKa value listed): 6.7

Like-named read-outs stand apart in the source and are kept apart here.
